The results in this text go back to patent US20180344758A1, “Method of Treating Cancer with cGAMP or cGAsMP” (LIPOGEN LLC, priority 2014, published 2018).

Common to all, as to format: cell-based, human
The subject of one assay is leukemia cell line SR. Kind of assay: MTT assay, SR. To be noted: FIG. 8A (cGAMP), FIG. 8B (IFN-β). On the technique in general: Tetrazolium assays rely on reduction of a dye to a coloured formazan, in cell work by metabolically active cells.
The test system of a further assay is tumor cell lines. The experiment in a line: Tumor cell lines treated with IFN-β alone. From the text: To test whether IFN-β induced by cGAMP mediates the suppression of tumor growth, we have treated the three tumor cell lines with either cGAMP or IFN-β alone.
Assay [1] concerns leukemia cell line CCRF-CEM. Kind of assay: MTT assay, CCRF-CEM. To be noted: control leukemia cell line (FIG. 8).

In the case of “IFN-β: type I interferon used alone to treat tumor cell lines”, the “response of cell line to treatment, MTT” value in the assay with leukemia cell line SR is recorded as “does not respond very well”; in assay [1], “did not respond”. Further, the “growth suppression by IFN-β alone” value in the assay with tumor cell lines (two of the three tumor cell lines) was “suppressed the growth”. Also, the “potency compared with cGAMP” value in the assay with tumor cell lines (two tumor cell lines, at the concentrations tested) is “almost as potent as cGAMP”.
